{"source": "patent US20120308567A1", "about": "“USE OF TYROSINE KINASE INHIBITORS FOR TREATMENT OF PROLACTINOMA” (CEDARS-SINAI MEDICAL CENTER, priority 2010, published 2012)", "test_system": "EGF-induced HER2 and MAPK autophosphorylation", "test": "Western blotting of EGF-induced ErbB signaling and intracellular PRL in HER2CA GH3 cells", "type": "cell-based, rat"}
{"molecule": "COc1cc2ncnc(Nc3ccc(F)c(Cl)c3)c2cc1OCCCN1CCOCC1", "note": "[gefitinib]", "values": [{"measurement": "intracellular PRL levels", "value": "not by gefitinib"}]}
